The chains behind the UniProt entries cited, without tags or fusion partners. Where a name states a change or a piece, a line headed by the entry shows the natural chain unless it says otherwise.
UniProt P49759: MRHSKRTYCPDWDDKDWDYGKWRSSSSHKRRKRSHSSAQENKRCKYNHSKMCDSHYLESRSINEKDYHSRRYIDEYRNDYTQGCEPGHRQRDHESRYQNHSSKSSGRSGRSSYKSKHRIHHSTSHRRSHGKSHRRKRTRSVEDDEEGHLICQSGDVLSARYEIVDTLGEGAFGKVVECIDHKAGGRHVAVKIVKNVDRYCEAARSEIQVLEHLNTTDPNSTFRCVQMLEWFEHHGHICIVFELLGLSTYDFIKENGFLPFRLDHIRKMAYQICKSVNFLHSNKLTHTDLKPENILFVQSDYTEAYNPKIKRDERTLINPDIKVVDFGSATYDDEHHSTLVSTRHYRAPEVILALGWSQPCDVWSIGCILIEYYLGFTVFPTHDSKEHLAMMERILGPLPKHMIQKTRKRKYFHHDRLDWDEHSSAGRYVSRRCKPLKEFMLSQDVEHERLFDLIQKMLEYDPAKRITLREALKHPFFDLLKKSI
UniProt P49760, whole entry: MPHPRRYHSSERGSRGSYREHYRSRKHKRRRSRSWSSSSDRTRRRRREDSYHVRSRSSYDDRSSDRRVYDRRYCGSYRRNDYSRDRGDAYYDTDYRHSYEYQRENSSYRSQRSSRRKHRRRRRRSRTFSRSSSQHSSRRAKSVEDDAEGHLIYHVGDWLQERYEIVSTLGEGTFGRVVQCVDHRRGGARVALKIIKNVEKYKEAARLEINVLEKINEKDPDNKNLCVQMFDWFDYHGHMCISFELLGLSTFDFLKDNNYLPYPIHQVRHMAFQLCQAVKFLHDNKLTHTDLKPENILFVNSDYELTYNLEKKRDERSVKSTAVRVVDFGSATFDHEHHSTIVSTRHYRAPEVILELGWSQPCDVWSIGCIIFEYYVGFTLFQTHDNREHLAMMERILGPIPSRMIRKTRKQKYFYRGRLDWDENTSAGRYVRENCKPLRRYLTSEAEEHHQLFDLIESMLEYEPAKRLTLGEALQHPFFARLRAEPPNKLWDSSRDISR
UniProt P49761: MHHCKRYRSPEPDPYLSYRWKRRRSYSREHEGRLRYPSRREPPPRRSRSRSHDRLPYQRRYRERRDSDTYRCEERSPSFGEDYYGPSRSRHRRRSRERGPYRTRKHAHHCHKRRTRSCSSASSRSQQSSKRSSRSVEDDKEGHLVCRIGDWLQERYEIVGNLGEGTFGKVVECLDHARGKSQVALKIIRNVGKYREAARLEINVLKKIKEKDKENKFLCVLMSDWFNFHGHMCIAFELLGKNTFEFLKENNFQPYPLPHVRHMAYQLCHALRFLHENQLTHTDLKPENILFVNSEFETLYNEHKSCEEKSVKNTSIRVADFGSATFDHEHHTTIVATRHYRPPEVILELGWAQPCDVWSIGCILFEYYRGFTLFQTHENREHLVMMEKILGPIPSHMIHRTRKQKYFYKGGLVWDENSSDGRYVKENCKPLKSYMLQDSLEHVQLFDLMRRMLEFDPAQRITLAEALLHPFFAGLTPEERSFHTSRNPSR

In ChEMBL document CHEMBL4725345, “DFG-1 Residue Controls Inhibitor Binding Mode and Affinity, Providing a Basis for Rational Design of Kinase Inhibitor Selectivity” (J Med Chem, 2020):

Legend:
[1] = molecular target: Dual specificity protein kinase CLK1 (Homo sapiens, UniProt P49759); assay: Inhibition of human CLK1 by radiometric assay
[2] = molecular target: Dual specificity protein kinase CLK2 (Homo sapiens, UniProt P49760); assay: Inhibition of human CLK2 by radiometric assay
[3] = molecular target: Dual specificity protein kinase CLK3 (Homo sapiens, UniProt P49761); assay: Inhibition of human CLK3 by radiometric assay

Cn1cc(-c2ccc3occ(-c4cccc(-c5ccncc5)c4)c3n2)cn1
IC50 [1]: 0.008 µM
IC50 [2]: 0.02 µM
IC50 [3]: > 3 µM
